{"source": "paper PMC9933715", "about": "“N-Phenylpyridine-3-Carboxamide and 6-Acetyl-1H-Indazole Inhibit the RNA Replication Step of the Dengue Virus Life Cycle” (Antimicrobial Agents and Chemotherapy, 2023)", "key": {"[1]": {"test_system": "Huh7.5 cells", "assay": "Cell viability, CellTiter-Glo luminescent assay", "conditions": "for Cell viability (fold DMSO) Mean: deconvolution screen, singletons, uninfected Huh7.5"}, "[2]": {"assay": "Cell viability, CellTiter-Glo luminescent assay", "conditions": "human, CC50 Huh 7.5, uninfected Huh7.5, 2 days, CellTiter-Glo"}, "[3]": {"conditions": "Table 1, NPP3C analogues, 50 μM, Huh7.5, 2 days"}, "[4]": {"conditions": "Table S3, NPP3C analogues, 50 µM, Huh7.5"}}, "data": [{"smiles": "CNC(=O)c1cn(C)c2ccccc12", "note": "[Compound 9T-1495, CNC(=O)c1cn(C)c2ccccc12]", "values": [{"measurement": "Cell viability (fold DMSO) Mean", "setting": "[1]; 50 µM", "value": 1.01, "unit": "fold DMSO"}]}, {"smiles": "c1ccc(NCc2cccnc2)cc1", "note": "[Compound 63]", "values": [{"measurement": "Cell viability (Fold DMSO)", "setting": "[1]; 6A1HI analogues, test concentration = 50 µM, Huh7.5 cells", "value": 1.04, "unit": "Fold DMSO"}, {"measurement": "Cell viability (Fold DMSO)", "setting": "[1]; [3]", "value": 0.90, "unit": "fold DMSO"}, {"measurement": "Cell viability (Fold DMSO)", "setting": "[1]; [4]", "value": 0.90, "unit": "Fold DMSO"}]}, {"smiles": "O=C(Nc1ccccc1)c1cccnc1", "note": "[NPP3C, N-phenylpyridine-3-carboxamide]", "values": [{"measurement": "CC50 at 48 h", "setting": "[2]", "value": "> 150", "unit": "µM"}, {"measurement": "Cell viability (Fold DMSO)", "setting": "[1]; [3]", "value": 0.80, "unit": "fold DMSO"}, {"measurement": "Cell viability (Fold DMSO)", "setting": "[1]; [4]", "value": 0.80, "unit": "Fold DMSO"}, {"measurement": "Cell viability (fold DMSO) Mean", "setting": "[1]; 50 µM", "value": 1.02, "unit": "fold DMSO"}, {"measurement": "CC50", "setting": "[1]; read-out: CC50 Huh 7.5, uninfected Huh7.5, 2 days, CellTiter-Glo", "value": "> 250", "unit": "µM"}]}, {"smiles": "O=C1CCc2ccccc21", "note": "[PS-5770, O=C1CCc2ccccc12]", "values": [{"measurement": "Cell viability (fold DMSO) Mean", "setting": "[1]; 50 µM", "value": 1.06, "unit": "fold DMSO"}]}]}
